Assays:
[1] = biological target: rat GnRH receptor (Rattus norvegicus, UniProt P30969); experiment: Radioligand binding, 125I-GnRH-A, rat pituitary membranes; conditions: read-out: rGnRH IC50
[2] = biological target: human GnRH receptor (Homo sapiens, UniProt P30968); experiment: Radioligand binding, 125I-GnRH-A displacement, membranes of HEK 293 cells with human GnRH receptor; conditions: read-out: hGnRH IC50
[3] = biological target: mouse GnRH receptor (Mus musculus, UniProt Q01776); experiment: Radioligand binding, 125I-GnRH-A, 293 cells expressing mouse GnRH receptors; conditions: read-out: mGnRH IC50
[4] = biological target: hGnRH receptor (Homo sapiens, UniProt P30968); experiment: Total inositol phosphates measurement, 293 cells containing the hGnRH receptor; format: cell-based; conditions: no species or readout annotated
[5] = biological target: bovine GnRH receptor (Bos taurus, UniProt P32236); experiment: Radioligand binding, 125I-GnRH-A, bovine pituitary membranes; conditions: read-out: bGnRH IC50

Amino acid sequences for entries named in this document (tags omitted).
UniProt P30969, whole entry: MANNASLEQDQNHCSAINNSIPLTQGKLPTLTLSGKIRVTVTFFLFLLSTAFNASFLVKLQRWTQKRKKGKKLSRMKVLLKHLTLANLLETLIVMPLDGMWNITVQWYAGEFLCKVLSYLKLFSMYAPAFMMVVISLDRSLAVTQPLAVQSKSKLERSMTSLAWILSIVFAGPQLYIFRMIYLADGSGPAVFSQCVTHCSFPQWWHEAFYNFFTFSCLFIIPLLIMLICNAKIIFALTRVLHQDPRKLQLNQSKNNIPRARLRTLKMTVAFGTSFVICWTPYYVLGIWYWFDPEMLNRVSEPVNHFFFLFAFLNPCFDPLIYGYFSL
UniProt P30968, whole entry: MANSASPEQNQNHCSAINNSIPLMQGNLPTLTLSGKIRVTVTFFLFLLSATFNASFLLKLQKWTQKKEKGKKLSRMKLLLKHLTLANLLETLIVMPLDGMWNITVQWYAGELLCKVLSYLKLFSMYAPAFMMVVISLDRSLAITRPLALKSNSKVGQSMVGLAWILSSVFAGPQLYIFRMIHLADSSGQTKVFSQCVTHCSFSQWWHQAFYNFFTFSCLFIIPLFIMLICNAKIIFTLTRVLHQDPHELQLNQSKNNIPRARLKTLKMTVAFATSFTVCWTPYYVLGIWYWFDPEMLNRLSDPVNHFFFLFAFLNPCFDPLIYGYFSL
UniProt Q01776, whole entry: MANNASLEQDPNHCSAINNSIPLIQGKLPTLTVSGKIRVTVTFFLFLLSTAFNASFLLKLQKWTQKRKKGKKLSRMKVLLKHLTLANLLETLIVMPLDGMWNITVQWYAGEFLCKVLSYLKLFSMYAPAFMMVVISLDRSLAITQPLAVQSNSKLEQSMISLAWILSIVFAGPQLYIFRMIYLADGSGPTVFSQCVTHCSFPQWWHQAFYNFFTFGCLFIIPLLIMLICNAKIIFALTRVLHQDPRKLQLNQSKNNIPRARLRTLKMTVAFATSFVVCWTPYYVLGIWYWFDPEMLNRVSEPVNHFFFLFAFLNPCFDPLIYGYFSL
UniProt P32236, whole entry: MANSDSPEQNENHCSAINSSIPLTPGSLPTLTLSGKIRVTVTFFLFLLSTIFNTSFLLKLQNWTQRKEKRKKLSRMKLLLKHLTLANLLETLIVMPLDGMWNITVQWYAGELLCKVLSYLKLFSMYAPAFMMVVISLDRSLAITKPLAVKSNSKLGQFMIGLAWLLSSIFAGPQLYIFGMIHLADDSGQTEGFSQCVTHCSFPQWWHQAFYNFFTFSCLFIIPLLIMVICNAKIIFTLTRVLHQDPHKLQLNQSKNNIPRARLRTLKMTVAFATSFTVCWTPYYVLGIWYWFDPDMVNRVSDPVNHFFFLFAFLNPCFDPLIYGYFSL

Compound | IC50 [1] [nM] | IC50 [2] [nM] | IC50 [3] [nM] | GnRH functional [4] | IC50 [5] [nM]
Cc1cc2c(cc1Cc1ccc(C(=O)Nc3ccc(C(=N)N)cc3)o1)C(C)(C)CCC2(C)C | 5130 | 6000 |  |  | 
Cc1cc2c(cc1Cc1ccc(C(=O)NCCCCNC(=N)N)o1)C(C)(C)CCC2(C)C | 540 | 920 | 1200 | Antag- onist | 3340
Cc1cc2c(cc1Cc1ccc(C(=O)NCc3cccc(CNC(=N)NC(=O)NCC4CCCO4)c3)o1)C(C)(C)CCC2(C)C (centres unmarked) |  | 210 |  |  | 

From patent US7101878B1 (Agouron Pharmaceuticals, Inc., priority 1998, dated 2006)
